According to patent US20140044709A1, “TREATMENT OF HER2-POSITIVE CANCER WITH PACLITAXEL AND TRASTUZUMAB-MCC-DM1” (priority 2010, published 2014):
“Also recorded” adds a separate entry of the source.

System: patients with HER2-positive MBC
Type: in vivo, human
Source text: Twenty-four patients were enrolled on the every-3-week dosing schedule, and 28 patients were enrolled on the weekly schedule. Prior to enrollment, patients had received nearly 2 years of trastuzumab (a median of 92 weeks for patients enrolled on the every-3-week schedule and 122 weeks for patients enrolled on the weekly schedule). The median number of prior chemotherapy agents for metastatic disease received by patients enrolled in this study was four for patients treated every 3 weeks and five for patients treated weekly.
Available data from the Phase I study are summarized below for all patients on both schedules. […] The most common (i.e., >25%) Grade ≧2 adverse events reported for patients on either schedule were thrombocytopenia, nausea (weekly schedule), fatigue, and headaches. The only Grade 4 events reported to date have been transient and reversible thrombocytopenia occurring in one patient at the 2.4 mg/kg weekly dosing schedule and in two patients at the 4.8 mg/kg every-3-week dosing schedule. […] One serious adverse event (pulmonary hypertension) was considered possibly related to study drug. All other reported serious adverse events were not considered to be drug related. […]

**Q.** What does the source list for T-DM1?
**A.** patients with transient Grade 4 thrombocytopenia (4.8 mg/kg every 3 weeks, 3 patients treated): two and Two; drug-related cardiac toxicity (either schedule): No cardiotoxicity has been observed; also recorded: No drug-related cardiac toxicity
